From US10759839B2, “Cell-penetrating peptide” (NEOREGEN BIOTECH, priority 2016, dated 2020)

Tested on: fibroblast NIH3T3 cell line
Assay: Cell growth promotion effect of purified ICT-Myc peptide (FIG. 12)
Format: cell-based
Experimental: FIG. 12 is a graph showing results of confirming a growth promotion effect of the ICT-Myc peptide purified in a cell group treated with an ICT-Myc peptide.
As a result, it could be confirmed that about 60% growth promotion was induced in the cells, in particular, at a concentration of 7.5 μM (FIG. 12).

B1: ICT-Myc: SEQ ID NO: 9, c-Myc sequence (SEQ ID NO: 8) linked at C-terminal of SEQ ID NO: 4; His-tagged form SEQ ID NO: 10 (protein)
chain: RKKRRQRRCFRCRQAGHWISDCRLKSKVKRRTHNVLERQRRNELKRSFFALRDQIPELENNEKAPKVVILKKATAYILSVQAEEQKLISEEDLLRKRREQLKHKLEQLRNSCA
modifications: ICT-Myc
growth promotion (7.5 μM, NIH3T3): about 60%
growth promotion effect, dependence on concentration (NIH3T3, for each concentration): in proportion to the concentration
